Molecular target: T1, acidic fibroblast growth factor (aFGF) (Homo sapiens, UniProt P05230)
T1 construct: host or cells: E. coli
Assay: Microplate thermal shift assay for ligands binding to aFGF, turbidity as signal
Source text: The second therapeutic receptor tested in the microplate thermal shift assay was acidic fibroblast growth factor (aFGF), a growth factor that plays a key role in angiogenesis (Folkman, J. et al., J. Biol. Chem. 267:10931-10934 (1992)). A synthetic gene for this protein was purchased from R&D Systems (Minneapolis, Minn.), and was cloned and expressed in E. coli using methods similar to those described for basic fibroblast growth factor (bFGF) (Thompson, L. D. et al., Biochemistry 33:3831-3840 (1994); Pantoliano, M. W. et al., Biochemistry 33:10229-10248 (1994); Springer, B. A. et al., J. Biol. Chem. 269:26879-26884 (1994)). Recombinant aFGF was then purified by heparin-sepharose affinity chromatography as described (Thompson, L. D. et al., Biochemistry 33:3831-3840 (1994)). aFGF is also known to bind heparin/heparan, which is a cofactor for mitogenic activity. […] A microplate thermal assay of these compounds was set up in a way similar to that described above for human α-thrombin. […] The affinity constants covered a fairly broad range of binding affinities, with pentosan PSO4 showing the highest affinity.

The chains behind the UniProt entries cited, without tags or fusion partners.
UniProt P05230, whole entry, species assumed: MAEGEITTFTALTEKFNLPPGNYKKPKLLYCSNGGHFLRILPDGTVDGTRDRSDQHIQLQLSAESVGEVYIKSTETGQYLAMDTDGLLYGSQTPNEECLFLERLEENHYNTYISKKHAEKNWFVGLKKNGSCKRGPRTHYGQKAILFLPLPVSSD

N[C@@H](CCC(=O)O)C(=O)N[C@@H](CCC(=O)O)C(=O)N[C@@H](CCC(=O)O)C(=O)N[C@@H](CCC(=O)O)C(=O)N[C@@H](CCC(=O)O)C(=O)O [EEEEE]
Kd (equation (1), estimated ΔHu 60.0 kcal/mole, ΔCpu 0.95 kcal/mole-°K, read-out: Kd at Tm): > 50 µM | ΔTm (relative to aFGF alone (317.15 ° K)): 0.0 ° K
